{
  "sequences": {"note": "Amino acid sequences for entries named in this document (tags omitted). A change or cut given only in a name is not applied to a line headed by its entry.", "UniProt P32245, whole entry": "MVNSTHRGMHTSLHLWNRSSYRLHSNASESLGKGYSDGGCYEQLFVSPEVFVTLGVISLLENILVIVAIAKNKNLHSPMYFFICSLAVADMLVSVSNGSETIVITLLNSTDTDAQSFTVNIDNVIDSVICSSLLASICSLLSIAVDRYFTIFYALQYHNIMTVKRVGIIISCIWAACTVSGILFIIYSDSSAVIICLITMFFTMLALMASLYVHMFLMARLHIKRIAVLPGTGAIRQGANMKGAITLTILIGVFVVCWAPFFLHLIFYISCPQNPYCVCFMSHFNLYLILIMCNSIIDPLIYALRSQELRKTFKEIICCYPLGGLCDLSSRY", "UniProt Q01726": "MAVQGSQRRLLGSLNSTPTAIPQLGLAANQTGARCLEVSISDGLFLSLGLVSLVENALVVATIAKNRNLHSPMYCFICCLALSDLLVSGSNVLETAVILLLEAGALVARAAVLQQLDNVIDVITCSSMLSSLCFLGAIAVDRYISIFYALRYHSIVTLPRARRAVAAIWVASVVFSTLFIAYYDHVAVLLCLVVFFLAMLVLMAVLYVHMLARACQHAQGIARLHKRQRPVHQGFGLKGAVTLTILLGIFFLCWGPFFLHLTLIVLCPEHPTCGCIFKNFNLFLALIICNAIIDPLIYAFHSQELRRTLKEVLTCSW"},
  "source": "paper PMC5999399",
  "about": "(Journal of medicinal chemistry, 2017)",
  "key": {"human MC4R (hMC4R) [1]": {"target": "T1, human MC4R (hMC4R) (Homo sapiens, UniProt P32245)", "details": "[125I]NDP-α-MSH displacement at 10 μM; ref previously published data; cited from earlier work"}, "human MC4R (hMC4R) [2]": {"target": "T1, human MC4R (hMC4R)", "details": "cAMP at 10 μM, in relation to MT-II; ref previously published data; cited from earlier work"}, "human MC1R (hMC1R) [3]": {"target": "T2, human MC1R (hMC1R) (Homo sapiens, UniProt Q01726)", "details": "cAMP at 10 μM, in relation to MT-II; ref previously published data; cited from earlier work"}, "human MC1R (hMC1R) [4]": {"target": "T2, human MC1R (hMC1R)", "experiment": "Competitive binding assay with [125I]NDP-α-MSH, hMC1R", "details": "ratio of IC50 hMC5R / hMC1R"}, "human MC1R (hMC1R) [5]": {"target": "T2, human MC1R (hMC1R)", "details": "[125I]NDP-α-MSH displacement at 10 μM; ref previously published data; cited from earlier work"}},
  "data": [
    {"substance": "H-Tyr-Val-Nle-Gly-His-D-Nal(2)-Arg-D-Trp-Asp-Arg-Phe-Gly-NH2 [Compound 1]", "values": [
      {"measurement": "hMC4R % BE", "setting": "human MC4R (hMC4R) [1]", "result": 100, "unit": "%"},
      {"measurement": "hMC4R % max effect", "setting": "human MC4R (hMC4R) [2]", "result": 18, "unit": "%"},
      {"measurement": "hMC1R % max effect", "setting": "human MC1R (hMC1R) [3]", "result": 70, "unit": "%"},
      {"measurement": "binding affinity to hMC1R stronger than hMC5R", "setting": "human MC1R (hMC1R) [4]", "result": 12, "unit": "fold"},
      {"measurement": "hMC1R % BE", "setting": "human MC1R (hMC1R) [5]", "result": 100, "unit": "%"}
    ]}
  ]
}
